Active and inactive are the calls of the source. The calls are words filed in the database; no cut-off is given here.
What was measured:
[1] = target: T1, NAD-dependent protein deacetylase sirtuin-3, mitochondrial (Homo sapiens) (UniProt Q9NTG7); test: Inhibition of full length N-terminal his-tagged SIRT3 (unknown origin) deacetylation activity expressed in Escherichia coli BL21 (DE3) using RHKK-Ac-AMC as substrate at 50 uM incubated for 2 hrs by BioTek microplate reader analysis relative to control
T1 sequence (whole entry): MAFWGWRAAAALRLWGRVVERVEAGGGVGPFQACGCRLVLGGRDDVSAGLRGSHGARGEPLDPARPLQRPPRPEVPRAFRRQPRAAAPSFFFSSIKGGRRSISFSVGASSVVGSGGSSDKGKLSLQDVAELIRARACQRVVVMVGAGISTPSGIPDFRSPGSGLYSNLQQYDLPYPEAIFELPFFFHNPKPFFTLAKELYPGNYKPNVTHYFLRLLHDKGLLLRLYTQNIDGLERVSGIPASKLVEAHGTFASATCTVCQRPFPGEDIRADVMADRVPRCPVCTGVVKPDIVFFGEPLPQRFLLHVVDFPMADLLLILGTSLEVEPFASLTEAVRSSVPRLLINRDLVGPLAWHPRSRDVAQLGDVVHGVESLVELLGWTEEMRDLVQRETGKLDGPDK

Chains of the proteins cited; added tags and fusions are not shown.
UniProt Q8N6T7, whole entry: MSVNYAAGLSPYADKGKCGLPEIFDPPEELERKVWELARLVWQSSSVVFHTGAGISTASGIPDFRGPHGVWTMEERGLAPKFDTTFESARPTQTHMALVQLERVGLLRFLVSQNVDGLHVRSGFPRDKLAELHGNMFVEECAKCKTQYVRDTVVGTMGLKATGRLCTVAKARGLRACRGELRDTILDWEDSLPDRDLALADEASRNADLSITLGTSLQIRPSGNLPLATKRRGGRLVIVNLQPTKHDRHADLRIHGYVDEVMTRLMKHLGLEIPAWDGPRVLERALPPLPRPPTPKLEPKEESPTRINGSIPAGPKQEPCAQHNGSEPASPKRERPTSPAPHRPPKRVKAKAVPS

[2] = target: NAD-dependent protein deacylase sirtuin-6 (Homo sapiens) (UniProt Q8N6T7); test: Inhibition of SIRT6 in human MCF7 cells assessed as increase in H3K56ac acetylation level at 100 uM incubated for 48 hrs by Western blot analysis; assay type: cell-based

| SMILES | inhibition [1] [%] | inhibition [2] |
| --- | --- | --- |
| O=C1c2c(O)cccc2Cc2cccc(O)c21 | 17 | – |
| O=C(O)C1OC(Oc2cc3oc(-c4ccccc4)cc(=O)c3c(O)c2O)C(O)C(O)C1O (stereo unspecified) | 17 | – |
| O=c1c(O)c(-c2ccc(O)c(O)c2)oc2cc(O)cc(O)c12 | 17 | – |
| O=C(Nc1ccc(O)c(C(=O)O)c1)c1cccc(NC(=O)c2ccco2)c1 | – | inactive |
| O=C(NCc1ccccn1)c1cc2c(cn1)[nH]c1ccccc12 | 60 | – |
| O=C1c2cccc(O)c2C(=O)c2c(O)cccc21 | 17 | – |
